Assay results from the CheMixHub ionic liquid set.

Test: xn = mol fraction of the nth substance listed

CCC[N+](CCC)(CCC)CCC.[Br-] + CCCCCCCCCCCCOS(=O)(=O)[O-].[Na+] + O
viscosity [mPa·s], 100 kPa
Conditions | x2 = 1.81e-06, x1 = 0.0001802 | x2 = 3.61e-06, x1 = 0.0001802 | x2 = 5.42e-06, x1 = 0.0001802 | x2 = 7.23e-06, x1 = 0.0001802 | x2 = 9.03e-06, x1 = 0.0001802 | x2 = 1.084e-05, x1 = 0.0001802 | x2 = 1.265e-05, x1 = 0.0001802 | x2 = 1.445e-05, x1 = 0.0001802 | x2 = 1.626e-05, x1 = 0.0001802 | x2 = 1.806e-05, x1 = 0.0001802
293.15 K | 1.009 | 1.01 | 1.011 | 1.011 | 1.012 | 1.012 | 1.013 | 1.013 | 1.013 | 1.014
298.15 K | 0.903 | 0.906 | 0.907 | 0.907 | 0.908 | 0.908 | 0.908 | 0.908 | 0.909 | 0.91
303.15 K | 0.797 | 0.798 | 0.799 | 0.8 | 0.8 | 0.801 | 0.801 | 0.801 | 0.801 | 0.802
308.15 K | 0.718 | 0.719 | 0.72 | 0.721 | 0.722 | 0.722 | 0.722 | 0.722 | 0.723 | 0.723
313.15 K | 0.653 | 0.654 | 0.656 | 0.656 | 0.657 | 0.657 | 0.657 | 0.657 | 0.658 | 0.658
318.15 K | 0.598 | 0.6 | 0.601 | 0.601 | 0.602 | 0.602 | 0.602 | 0.602 | 0.602 | 0.602

CCC[N+](CCC)(CCC)CCC.[Br-] + CCCCCCCCCCCC[N+](C)(C)C.[Br-] + O
viscosity [mPa·s], 100 kPa
Conditions | x2 = 5.419e-05, x1 = 0.0001802 | x2 = 0.0001084, x1 = 0.0001801 | x2 = 0.0001626, x1 = 0.0001801 | x2 = 0.0002167, x1 = 0.0001801 | x2 = 0.0002709, x1 = 0.0001801 | x2 = 0.0003251, x1 = 0.0001801 | x2 = 0.0003792, x1 = 0.0001801 | x2 = 0.0004334, x1 = 0.0001801 | x2 = 0.0004875, x1 = 0.0001801 | x2 = 0.0005416, x1 = 0.0001801
293.15 K | 1.037 | 1.038 | 1.04 | 1.041 | 1.042 | 1.043 | 1.044 | 1.044 | 1.044 | 1.044
298.15 K | 0.929 | 0.932 | 0.933 | 0.933 | 0.934 | 0.934 | 0.934 | 0.935 | 0.935 | 0.935
303.15 K | 0.822 | 0.822 | 0.824 | 0.824 | 0.825 | 0.825 | 0.825 | 0.825 | 0.826 | 0.826
308.15 K | 0.74 | 0.741 | 0.743 | 0.743 | 0.744 | 0.744 | 0.744 | 0.745 | 0.745 | 0.745
313.15 K | 0.673 | 0.675 | 0.676 | 0.677 | 0.677 | 0.678 | 0.678 | 0.678 | 0.678 | 0.678
318.15 K | 0.618 | 0.62 | 0.621 | 0.621 | 0.622 | 0.622 | 0.622 | 0.622 | 0.622 | 0.622

CCC[N+](CCC)(CCC)CCC.[Br-] + OCC(O)CO
Conditions | electrical conductivity [S/m] | viscosity [mPa·s]
292.9 K, 101 kPa, x2 = 0.6667 | 0.0179 | –
293 K, 101 kPa, x2 = 0.75 | 0.0187 | –
293.2 K, 101 kPa, x2 = 0.8 | 0.0154 | –
294 K, 101 kPa, x2 = 0.6667 | – | 86
294.4 K, 101 kPa, x2 = 0.75 | – | 56
296.8 K, 101 kPa, x2 = 0.8 | – | 41
302.9 K, 101 kPa, x2 = 0.6667 | 0.0399 | –
303 K, 101 kPa, x2 = 0.75 | 0.0358 | –
303.1 K, 101 kPa, x2 = 0.8 | 0.0334 | –
303.6 K, 101 kPa, x2 = 0.75 | – | 41
303.6 K, 101 kPa, x2 = 0.8 | – | 32.7
303.8 K, 101 kPa, x2 = 0.6667 | – | 59
313 K, 101 kPa, x2 = 0.6667 | 0.068 | –
313 K, 101 kPa, x2 = 0.75 | 0.059 | –
313.1 K, 101 kPa, x2 = 0.8 | 0.055 | –
313.7 K, 101 kPa, x2 = 0.6667 | – | 35
313.7 K, 101 kPa, x2 = 0.8 | – | 21.2
313.9 K, 101 kPa, x2 = 0.75 | – | 25.3
318.15 K, 100 kPa, x1 = 0.333 | – | 221
322.9 K, 101 kPa, x2 = 0.6667 | 0.11 | –
323.2 K, 101 kPa, x2 = 0.75 | 0.092 | –
323.2 K, 101 kPa, x2 = 0.8 | 0.09 | –
323.7 K, 101 kPa, x2 = 0.75 | – | 17.6
323.7 K, 101 kPa, x2 = 0.8 | – | 14.3
324.1 K, 101 kPa, x2 = 0.6667 | – | 23.3
333 K, 101 kPa, x2 = 0.6667 | 0.159 | –
333 K, 101 kPa, x2 = 0.75 | 0.14 | –
333.1 K, 101 kPa, x2 = 0.8 | 0.138 | –
333.7 K, 101 kPa, x2 = 0.75 | – | 11.8
333.9 K, 101 kPa, x2 = 0.6667 | – | 15.9
333.9 K, 101 kPa, x2 = 0.8 | – | 10.6
342.9 K, 101 kPa, x2 = 0.75 | 0.197 | –
343.1 K, 101 kPa, x2 = 0.6667 | 0.211 | –
343.2 K, 101 kPa, x2 = 0.8 | 0.192 | –
343.8 K, 101 kPa, x2 = 0.75 | – | 8.6
344 K, 101 kPa, x2 = 0.6667 | – | 11
344 K, 101 kPa, x2 = 0.8 | – | 7.3
353 K, 101 kPa, x2 = 0.6667 | 0.268 | –
353 K, 101 kPa, x2 = 0.75 | 0.278 | –
353 K, 101 kPa, x2 = 0.8 | 0.267 | –
353.8 K, 101 kPa, x2 = 0.8 | – | 5.7
354 K, 101 kPa, x2 = 0.6667 | – | 8.6
354.2 K, 101 kPa, x2 = 0.75 | – | 6.9

CCC[N+](CCC)(CCC)CCC.[Br-] + OCCO
Conditions | electrical conductivity [S/m] | viscosity [mPa·s]
292.9 K, 101 kPa, x2 = 0.75 | 0.221 | –
292.9 K, 101 kPa, x2 = 0.8333 | 0.296 | –
293.1 K, 101 kPa, x2 = 0.8 | 0.274 | –
293.8 K, 101 kPa, x2 = 0.75 | – | 1505
294 K, 101 kPa, x2 = 0.8333 | – | 980
294.8 K, 101 kPa, x2 = 0.8 | – | 880
302.8 K, 101 kPa, x2 = 0.8333 | – | 520
303 K, 101 kPa, x2 = 0.75 | 0.327 | –
303 K, 101 kPa, x2 = 0.8 | 0.386 | –
303 K, 101 kPa, x2 = 0.8333 | 0.402 | –
303.4 K, 101 kPa, x2 = 0.8 | – | 560
304 K, 101 kPa, x2 = 0.75 | – | 690
312.5 K, 101 kPa, x2 = 0.8 | 0.53 | –
312.9 K, 101 kPa, x2 = 0.75 | 0.439 | –
313.1 K, 101 kPa, x2 = 0.8333 | 0.54 | –
313.7 K, 101 kPa, x2 = 0.75 | – | 320
313.7 K, 101 kPa, x2 = 0.8 | – | 246
313.7 K, 101 kPa, x2 = 0.8333 | – | 217
318 K, 100 kPa, x2 = 0.75 | – | 26
322.8 K, 101 kPa, x2 = 0.8 | 0.65 | –
322.9 K, 101 kPa, x2 = 0.8333 | – | 100
323 K, 101 kPa, x2 = 0.75 | 0.57 | –
323.2 K, 101 kPa, x2 = 0.8333 | 0.77 | –
323.9 K, 101 kPa, x2 = 0.75 | – | 144
323.9 K, 101 kPa, x2 = 0.8 | – | 107
332.7 K, 101 kPa, x2 = 0.75 | 0.75 | –
333.2 K, 101 kPa, x2 = 0.8 | 0.85 | –
333.2 K, 101 kPa, x2 = 0.8333 | 0.82 | –
333.5 K, 101 kPa, x2 = 0.8333 | – | 49
333.7 K, 101 kPa, x2 = 0.8 | – | 56
334.1 K, 101 kPa, x2 = 0.75 | – | 71
342.7 K, 101 kPa, x2 = 0.75 | 0.9 | –
343.1 K, 101 kPa, x2 = 0.8333 | 1.03 | –
343.2 K, 101 kPa, x2 = 0.8333 | – | 26.8
343.6 K, 101 kPa, x2 = 0.75 | – | 42
344 K, 101 kPa, x2 = 0.8 | – | 34
352.8 K, 101 kPa, x2 = 0.75 | – | 19.5
352.8 K, 101 kPa, x2 = 0.8 | – | 19.5
352.8 K, 101 kPa, x2 = 0.8333 | – | 4.9
353 K, 101 kPa, x2 = 0.8333 | 1.16 | –
353.2 K, 101 kPa, x2 = 0.75 | 1.04 | –
353.2 K, 101 kPa, x2 = 0.8 | 1.15 | –

CCC[N+](CCC)(CCC)CCC.[Br-] + OCCOCCOCCO
101 kPa
Conditions | electrical conductivity [S/m] | viscosity [mPa·s]
293 K, x2 = 0.75 | – | 117
293.2 K, x2 = 0.75 | 0.078 | –
293.2 K, x2 = 0.8 | 0.066 | –
293.3 K, x2 = 0.7143 | 0.079 | –
294.8 K, x2 = 0.7143 | – | 118
296.2 K, x2 = 0.8 | – | 81
303.1 K, x2 = 0.7143 | 0.102 | –
303.1 K, x2 = 0.75 | 0.106 | –
303.3 K, x2 = 0.8 | 0.118 | –
303.4 K, x2 = 0.8 | – | 62
303.6 K, x2 = 0.75 | – | 74
304 K, x2 = 0.7143 | – | 78
313.1 K, x2 = 0.75 | 0.155 | –
313.2 K, x2 = 0.7143 | 0.181 | –
313.2 K, x2 = 0.8 | 0.145 | –
313.3 K, x2 = 0.75 | – | 47
313.9 K, x2 = 0.7143 | – | 49
314.1 K, x2 = 0.8 | – | 38
323 K, x2 = 0.75 | 0.214 | –
323.2 K, x2 = 0.8 | 0.206 | –
323.3 K, x2 = 0.7143 | 0.241 | –
323.3 K, x2 = 0.75 | – | 31.4
323.7 K, x2 = 0.7143 | – | 33.1
323.7 K, x2 = 0.8 | – | 25.7
333.1 K, x2 = 0.7143 | 0.296 | –
333.2 K, x2 = 0.75 | 0.273 | –
333.2 K, x2 = 0.8 | 0.257 | –
333.3 K, x2 = 0.75 | – | 22.3
333.7 K, x2 = 0.7143 | – | 21.1
334.1 K, x2 = 0.8 | – | 17.7
343.1 K, x2 = 0.7143 | 0.374 | –
343.1 K, x2 = 0.75 | 0.331 | –
343.2 K, x2 = 0.8 | 0.341 | –
343.8 K, x2 = 0.7143 | – | 16
343.8 K, x2 = 0.75 | – | 15.4
344 K, x2 = 0.8 | – | 12
353 K, x2 = 0.7143 | 0.423 | –
353.1 K, x2 = 0.75 | 0.405 | –
353.4 K, x2 = 0.8 | 0.375 | –
353.6 K, x2 = 0.7143 | – | 13.1
353.6 K, x2 = 0.75 | – | 11.4
353.8 K, x2 = 0.8 | – | 9.7
